# pEC50: −log10 of the molar value.
# Target: T1, Apelin receptor (Homo sapiens, UniProt P35414)
# T1 sequence (P35414 whole entry): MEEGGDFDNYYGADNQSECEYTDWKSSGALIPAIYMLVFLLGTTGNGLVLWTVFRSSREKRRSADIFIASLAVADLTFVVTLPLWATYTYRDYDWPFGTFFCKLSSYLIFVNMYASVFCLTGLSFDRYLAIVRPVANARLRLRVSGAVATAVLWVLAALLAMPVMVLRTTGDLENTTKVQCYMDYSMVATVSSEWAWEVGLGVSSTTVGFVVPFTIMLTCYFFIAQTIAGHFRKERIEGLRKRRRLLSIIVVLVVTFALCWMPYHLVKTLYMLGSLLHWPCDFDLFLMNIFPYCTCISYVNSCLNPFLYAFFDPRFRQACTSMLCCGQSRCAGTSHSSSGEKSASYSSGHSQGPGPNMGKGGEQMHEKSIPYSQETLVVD
compound,measurement,value
"COc1cccc(OC)c1-n1c(NS(=O)(=O)[C@@H](C)[C@H](O)c2ncc(C)cn2)nnc1-c1cncc(C)c1 [US9845310, Example 371.0]",pEC50,7.49

# Source: BindingDB's records for patent US9845310 (Amgen, 2017)
